Yeast mating assay B: variants of the scFv Ab-14

Data: MIT Lincoln Laboratory AlphaSeq set, Li et al. 2023, doi:10.1038/s41467-023-39022-2, as distributed in FLAb.

Binding partner: SARS-CoV-2 spike HR2 peptide, sequence PDVDLGDISGINAS.

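These sequences belong to a second round, designed from the earlier measurements on random variants of the parent. Group labels follow the data file (Ctrl: baseline library sampled from a position-specific scoring matrix, with some repeated check sequences; Rand: our label for a block that the file lists under HC and that is probably the random mutants of the ten best first-round binders; En: ensemble of fine-tuned language models; GP: Gaussian process model; GPLM: also part of the Gaussian process libraries; HC: hill climbing; Gen: genetic algorithm; Gibbs: Gibbs sampling; a sequence that several methods proposed may carry one label only). AlphaSeq pools MATa yeast showing the antibodies with MATalpha yeast showing the peptide. After mating in shaken culture at 30 °C for 16 h, diploids were selected and their barcode pairs sequenced. A regression on co-assayed BCL2-family reference pairs converts the normalised counts of each replicate to an apparent Kd. There are six technical replicates.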

The variants keep the light chain, the linker and the frameworks of Ab-14 (scFv order VH, a (GGGGS)3 linker, VL).
VH: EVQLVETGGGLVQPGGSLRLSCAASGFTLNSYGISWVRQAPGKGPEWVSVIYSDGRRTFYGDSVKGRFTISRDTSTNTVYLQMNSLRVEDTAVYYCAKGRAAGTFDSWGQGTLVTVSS
VL: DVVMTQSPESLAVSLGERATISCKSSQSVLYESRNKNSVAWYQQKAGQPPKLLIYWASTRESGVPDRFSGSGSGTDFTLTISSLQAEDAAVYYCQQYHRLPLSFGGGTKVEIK

Variants are written as CDR1, CDR2 and CDR3 of the heavy chain (limits as in the source). Parent: GFTLNSYGIS, VIYSDGRRTFYGDSVK, GRAAGTFDS.
The Kd shown is the geometric mean over detected replicates; a lower Kd is a better binder.
Where no diploid with the target was found in any replicate, the entry reads "nd": below detection, most likely a poor binder, though not proof of it.
Of ten entries with the parent sequence, four were seen in most replicates (averages 2.2 nM to 240 nM), three in one and three in none, so single entries are noisy.
The authors' rule: three or more of the six replicates give a measured affinity, fewer mean a poor binder.
Three control strains display no target. For all heavy chain designs, 1% of the pairings with them gave a signal, with a median of 120 nM and one signal in twenty below 7.0 nM, so weak values seen in few replicates may be background.
The range of this assay differs from that of the first round, and the authors advise against merging the two.

Result 2.3 nM (6 of 6 replicates), variant GFSLNSYGIS, VIYSDGRRTFYKDSVK, GRTAGTFDT [GPLM_Gen].
Result 640 pM (6 of 6 replicates), variant GFNLEDYGIS, VIYADGHRASYVESVK, GGLAGTFDE [En_Gibbs].
Result 270 pM (6 of 6 replicates), variant GFDLNEYGIS, VIYADGRRTFYSDSVK, GEEAGTFDQ [En_HC].
Result 5.2 nM (6 of 6 replicates), variant GFDLNSYGIS, VIYSDGRRTFYQDSVK, GRLAGTFDS [GPLM_Gibbs].
Result 1.7 nM (6 of 6 replicates), variant GFSLNEYGIS, VIYSDGRRTFYGDSVK, GQAAGTFDA [GPLM_Gen].
Result 850 pM (6 of 6 replicates), variant GFTLNSYGIS, VIYSDGLRTFYADSVK, GNAAGTFDS [GP_Gibbs].
Result nd (0 of 6 replicates), variant GFSIDEYGIS, VIYADGTRTAVATSVK, GQLVAYFDK [En_Gibbs].
Result 450 pM (6 of 6 replicates), variant GFDLEEYGIS, VIYADGRRTFYSDSVK, GENAGTFDS [En_HC].
Result 8.6 nM (1 of 6 replicates), variant GFTLNSYGIS, VIYSDGLRTFYGDSVK, GKAAGTFDS [Ctrl].
Result 690 pM (6 of 6 replicates), variant GFDLNEYGIS, VIYADGRRTFYSDSVK, GNVGGTFDV [En_HC].
Result nd (0 of 6 replicates), variant GEVLDEYGIS, VIYADGQRVQYSDNVK, GLLFGVFDM [En_Gibbs].
Result 190 pM (6 of 6 replicates), variant GFTLNSYGIS, VIYSDGRRTFYGDSVK, GEVAGTFDN [GP_Gibbs].
Result nd (0 of 6 replicates), variant GFTPDSYGIS, VIYSDGRRTFYGDSVK, GRAADTFLS [Ctrl].
Result 23 nM (6 of 6 replicates), variant GFWLNDYGIS, VIYSDGRRTFYDDSVK, GRAAGTFDS [GP_HC].
Result 140 pM (6 of 6 replicates), variant GFDLNEYGIS, VIYADGRRTFYADSVK, GEVAGTFVS [En_HC].
Result nd (0 of 6 replicates), variant GFTLNSYGIS, VIYADGRRTFYGDRVK, GRASGTNKS [Rand].
Result 85 pM (6 of 6 replicates), variant GFDLDEYGIS, VIYADGQRTYYADSVK, GNVAGTFDI [En_Gen].
Result 410 pM (6 of 6 replicates), variant GFTLDEYGIS, VIYADGMRTFYTDSVK, GGNAGTFDV [En_HC].
Result 240 pM (6 of 6 replicates), variant GFDLNEYGIS, VIYADGQRTFYTDSVK, GANAGTFDV [En_HC].
Result 3.7 nM (6 of 6 replicates), variant GFVLNQYGIS, VIYSDGRRTFYSDSVK, GEAAGTFDS [GP_Gibbs].
Result nd (0 of 6 replicates), variant GFGLNSYGIS, VIYFDGRRVFYGDNVK, GRAAGTFDS [Ctrl].
Result 5.8 nM (6 of 6 replicates), variant GFDLDEYGIS, VIYADGKRTAYADSVK, GENAGTFDM [En_Gen].
Result 18 nM (6 of 6 replicates), variant GFDLNNYGIS, VIYSDGRRTFYGDSVK, GRAAGTFDQ [Ctrl].
Result 1.7 nM (6 of 6 replicates), variant GFDLNSYGIS, VIYSDGKRTFYIDSVK, GQAAGTFDV [GP_Gibbs].
Result 250 pM (6 of 6 replicates), variant GFDLNEYGIS, VIYADGMRKYYADSVK, GENAGTFDV [En_Gen].
Result 5.1 nM (6 of 6 replicates), variant GFNLNSYGIS, VIYSDGRRTFYADKVK, GRNAGTFDS [GP_Gen].
Result 71 nM (3 of 6 replicates), variant GFTLNSYGIS, VIYSDGRRTFYGDNVK, GRAAGTFDT [Ctrl].
Result 300 pM (6 of 6 replicates), variant GFDLNEYGIS, VIYADGQRTAYADSVK, GQNAGTFDL [En_Gen].
Result 120 pM (6 of 6 replicates), variant GFDLNEYGIS, VIYADGQRKFYADSVK, GNTAGTFDV [En_HC].
Result 480 pM (6 of 6 replicates), variant GFNLDEYGIS, VIYADGKRTAYADSVK, GNQAGTFDV [En_Gen].
Result 710 pM (6 of 6 replicates), variant GFDLNMYGIS, VIYSDGRRTFYGDSVK, GREAGTFDS [GP_Gen].
Result 490 nM (3 of 6 replicates), variant GNTLNSYGIS, VIYSDGRRTFYGDSVK, GRAAGTFDS [Ctrl].
Result 2.5 nM (6 of 6 replicates), variant GFHLNDYGIS, VIYSDGRRTFYGDSVK, GRTAGTFDS [GPLM_Gen].
Result 960 pM (6 of 6 replicates), variant GFSLNSYGIS, VIYSDGRRTFYADSVK, GQTAGTFDK [GPLM_Gen].
Result nd (0 of 6 replicates), variant GFNLNSYGIS, VIYSDGRRAFYGDSVK, GRCAGHFDS [Ctrl].

Picked from the list: the 3 lowest averages where every replicate gave a value.

With GFDLDEYGIS, VIYADGQRTYYADSVK, GNVAGTFDI [En_Gen] the result was 85 pM (6 of 6 replicates).
With GFDLNEYGIS, VIYADGQRKFYADSVK, GNTAGTFDV [En_HC] the result was 120 pM (6 of 6 replicates).
With GFDLNEYGIS, VIYADGRRTFYADSVK, GEVAGTFVS [En_HC] the result was 140 pM (6 of 6 replicates).